Assay results reported in ChEMBL document CHEMBL1129278, “Binding of arylpiperazines, (aryloxy)propanolamines, and tetrahydropyridylindoles to the 5-HT1A receptor: contribution of the molecular lipophilicity potential to three-dimensional quantitative structure-affinity relationship models” (J Med Chem, 1996).

Amino acid sequences for entries named in this document (tags omitted).
UniProt P19327, whole entry: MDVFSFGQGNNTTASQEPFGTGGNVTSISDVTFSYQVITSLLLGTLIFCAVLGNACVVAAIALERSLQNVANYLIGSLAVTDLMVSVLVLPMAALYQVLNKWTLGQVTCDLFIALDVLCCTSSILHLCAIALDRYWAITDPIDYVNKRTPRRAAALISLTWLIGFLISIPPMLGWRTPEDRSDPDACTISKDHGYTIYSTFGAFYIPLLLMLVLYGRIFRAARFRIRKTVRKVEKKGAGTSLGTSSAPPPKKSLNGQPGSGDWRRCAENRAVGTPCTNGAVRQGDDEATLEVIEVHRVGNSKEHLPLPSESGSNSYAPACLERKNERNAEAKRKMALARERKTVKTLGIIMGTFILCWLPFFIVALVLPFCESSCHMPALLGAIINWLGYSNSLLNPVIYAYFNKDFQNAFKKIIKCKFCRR

Molecular target: 5-hydroxytryptamine receptor 1A (Rattus norvegicus, UniProt P19327)

NCCc1c[nH]c2ccc(O)cc12 [SEROTONIN]
Ki: 4.79 nM
